Tested on: TFG-MET allograft tumors
Assay: TFG-MET allograft preclinical trial in CD1 mice, Survival cohort (survival, BLI, body weight)
Format: in vivo, mouse
Conditions: Murine allografts; day 77; drug + RT

With `C[C@@H](Oc1cc(-c2cnn(C3CCNCC3)c2)cnc1N)c1c(Cl)ccc(F)c1Cl` [Crizotinib] the “BLI signal, individual mice” value was 1.16E+05.
